Active and inactive are the calls of the source. No cut-off for these calls is given here.
Columns and labels:
[1] = target: Monoglyceride lipase (Mus musculus) (UniProt O35678); conditions: ICR, dose 10.0 mg/kg, route po, time 240.0 min
[2] = target: Monoglyceride lipase (Mus musculus) (UniProt O35678); conditions: ICR, dose 10.0 mg/kg, route po, time 8.0 hrs

By UniProt entry, the sequences of proteins in these tests, tags left out.
UniProt O35678, whole entry: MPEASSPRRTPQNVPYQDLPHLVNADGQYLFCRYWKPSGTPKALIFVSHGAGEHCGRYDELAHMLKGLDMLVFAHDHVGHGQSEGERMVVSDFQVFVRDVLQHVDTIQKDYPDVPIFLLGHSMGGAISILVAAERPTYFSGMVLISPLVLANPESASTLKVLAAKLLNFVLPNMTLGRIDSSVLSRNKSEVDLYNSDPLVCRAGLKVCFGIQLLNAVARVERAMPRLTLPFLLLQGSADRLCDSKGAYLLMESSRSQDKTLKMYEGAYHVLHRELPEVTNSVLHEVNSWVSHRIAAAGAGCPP

inhibition [1]: Active
inhibition [2]: inactive
Compound: O=C(c1ccc2ccc(=O)[nH]c2c1)N1CCN(c2ccc(-c3ccc(Cl)cc3)cn2)CC1
